Patent US20080269114A1 (7TM PHARMA A S, published 2008)

Amino acid sequences for entries named in this document (tags omitted). A change or cut given only in a name is not applied to a line headed by its entry.
UniProt P50391: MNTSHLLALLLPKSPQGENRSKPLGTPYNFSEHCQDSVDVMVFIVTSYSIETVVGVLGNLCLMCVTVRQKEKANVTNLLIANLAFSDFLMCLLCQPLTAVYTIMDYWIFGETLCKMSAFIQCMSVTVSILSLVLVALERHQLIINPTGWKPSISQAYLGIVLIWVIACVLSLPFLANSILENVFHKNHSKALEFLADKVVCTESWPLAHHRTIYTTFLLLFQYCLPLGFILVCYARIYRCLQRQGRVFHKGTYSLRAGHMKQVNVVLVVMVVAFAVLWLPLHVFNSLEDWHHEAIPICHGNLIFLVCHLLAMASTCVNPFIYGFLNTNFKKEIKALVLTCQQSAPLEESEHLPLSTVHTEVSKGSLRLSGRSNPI

Columns and labels:
human Y4 receptor [1] = molecular target: T1, human Y4 receptor (human, UniProt P50391 1-375); assay: cell-based or functional assay
human Y4 receptor [2] = molecular target: T1, human Y4 receptor; assay: competition binding, displacement of 125I-PP, COS-7 cells with human Y4

Binder	EC50, inositol phosphate turnover (human Y4 receptor [1]) [nM]	IC50 (human Y4 receptor [2]) [nM]
APLEPVYPGDNATPEQMAQYAADLRRYINMLTRHRY (chain 1 pos 36: C-terminal Tyr carboxyamide (CONH2)) [[His34]PP]	1.2	
CTRPRY (C-terminal amide; disulfide bridge between the Cys residues of the two chains, also called [CTRPRY-amide]×2) [[CTRPRY-amide]x2 homo-dimer]		29
CLTRPRY (C-terminal amide; disulfide bridge between the Cys residues of the two chains, also called [CLTRPRY-amide]×2) [[CLTRPRY-amide]x2 homo-dimer]		1.3
